# Curated experimental data: Henry's law constant values

Values as listed in the OPERA 2.9 repository of K. Mansouri.

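The OPERA project collected these measurements from public sources as training and test data for property models. A listed value is a point estimate from one report or more. Conditions of the individual experiments are not part of the data. A value may pool stereoisomers or salt forms, and the file does not say which form was measured. Unmarked limits or estimates from the upstream databases cannot be ruled out.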

Henry's law constant (air-water partitioning) is log10 of atm·m3/mol, nominally at 25 °C.
"via" names the databases from which the curators took the value.

Listed for Cc1nn(C)c(OCC(=O)c2ccccc2)c1C(=O)c1ccc(Cl)cc1Cl [Pyrazoxyfen]: log H -9.673 (log10 atm·m3/mol) (via OCHEM). The entry for CCOC(=O)c1nc(C(Cl)(Cl)Cl)n(-c2ccc(Cl)cc2Cl)n1 [Fenchlorazole-ethyl] lists log H -8.405 (log10 atm·m3/mol) (via OCHEM). CC1COc2ccccc2N1C(=O)C(Cl)Cl (stereo not given) [Benoxacor] has log H -7.121 (log10 atm·m3/mol) (via OCHEM). Listed for CCNc1nc(N)nc(Cl)n1 [Deisopropylatrazine]: log H -9.824 (log10 atm·m3/mol) (via OCHEM).

Listed for C=CCCCCCCCCCC [1-Dodecene]: log H -0.608 (log10 atm·m3/mol) (via eChemPortal). The entry for CCCC(=O)N(C)C [Butanamide, N,N-dimethyl-] lists log H -6.83 (log10 atm·m3/mol) (via OCHEM). CCOC(=O)C1=NN(c2ccc(Cl)cc2Cl)C(C)(C(=O)OCC)C1 (stereo not given) [Mefenpyr-diethyl] is reported with log H -8.599 (log10 atm·m3/mol) (via OCHEM). Listed for CC(Oc1ccc(Oc2cnc3cc(Cl)ccc3n2)cc1)C(=O)OCC1CCCO1 (stereo not given) [Quizalofop-P-tefuryl]: log H -8.051 (log10 atm·m3/mol) (via OCHEM).

Listed for CCCCC(CC)CN (stereo not given) [2-Ethylhexylamine]: log H -4.021 (log10 atm·m3/mol) (via eChemPortal). CCCCCCCC/C=C\CCCCCCCCCCCCC [cis-Tricos-9-ene] is reported with log H -10.28 (log10 atm·m3/mol) (via OCHEM). CC=CCCCCC [2-Octene] has log H -0.144 (log10 atm·m3/mol) (via eChemPortal). CN(C)C(=O)SCCCCOc1ccccc1 [Fenothiocarb] is reported with log H -7.86 (log10 atm·m3/mol) (via OCHEM).

For FC(F)(F)C(=NOCC1OCCO1)c1ccc(Cl)cc1 [Fluxofenim] the data give log H -5.412 (log10 atm·m3/mol) (via OCHEM). For O=C(O)c1c(Cl)ccc(Cl)c1Cl [2,3,6-Trichlorobenzoic acid] the data give log H -7.673 (log10 atm·m3/mol) (via OCHEM).

The 2 lowest values of log H among the entries above:

| compound | name | log H (log10 atm·m3/mol) | via |
|---|---|---|---|
| CCCCCCCC/C=C\CCCCCCCCCCCCC | cis-Tricos-9-ene | -10.28 | OCHEM |
| CCNc1nc(N)nc(Cl)n1 | Deisopropylatrazine | -9.824 | OCHEM |